These are literature values, as cited in patent US8088918B2, “Noncardiotoxic pharmaceutical compounds” (Williamsburg Holdings LLC, priority 2004, dated 2012).

For the data set the following is noted: parent drugs; cited from earlier work.

Turning to oxybutynin, the pKa was 6.96.
